Patent US20090137554A1, “1,4,5,6-TETRAHYDRO -PYRROLO[2,3-d]AZEPINES AND -IMIDAZO[4,5-d]AZEPINES AS MODULATORS OF NUCLEAR RECEPTOR ACTIVITY” (Wyeth, priority 2007, published 2009)

Biological target: T1, Gal4/hFXR fusion protein (Homo sapiens, UniProt Q96RI1)
T1 sequence (Q96RI1 262-486 limits assumed): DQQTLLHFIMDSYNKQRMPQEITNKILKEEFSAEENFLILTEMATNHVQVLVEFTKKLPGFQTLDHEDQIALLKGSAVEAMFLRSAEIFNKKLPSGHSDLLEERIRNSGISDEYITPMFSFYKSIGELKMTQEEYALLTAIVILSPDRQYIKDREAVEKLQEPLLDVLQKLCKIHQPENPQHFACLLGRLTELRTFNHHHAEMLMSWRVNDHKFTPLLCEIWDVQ
Assay: Gal4/hFXR fusion protein agonist activity in human 293 cells (luciferase reporter)
Assay type: cell-based
Conditions: Human 293 stable clone 2 expressing Gal4/hFXR, 24 hours incubation
Description: Characterization of Compounds for Gal4/hFXR Fusion Protein Agonist Activity in Human 293 Cells
• 1. Compounds to be tested are prepared as 2× stocks in assay medium. • 2. […] The supernatant is removed and the cells are resuspended in 1 ml assay medium. The cells are counted and diluted in assay medium to 200,000 cells per ml. The cells are then plated at 10,000 cells per well in Culturplate-96 plates in 50 μL assay medium. The cells are incubated at 37° C. for approximately 1 hour. • 3. […] All assays include 1 uM GW4064 as a reference standard. • 4. Cells are incubated for 24 hours at 37° C.
• 5. The medium is removed, and the cells are lysed in 25 uL lysis buffer (Promega, E3971). • 6. The plates are analyzed for luciferase activity with luciferase assay reagent (Promega E1483). Plates are read on Victor^3V instrument using the protocol “Shuguang Luciferase assay” (dispense volume=100 uL, plate type=“Packard Viewplate”, measurement height=8 mm from bottom of plate, 5 second read per well).
• 1. For agonist single point screening, data are analyzed in Excel. Each compound is tested in triplicate. The fold stimulation of each compound is calculated as RLUcpd/RLUbkgd. • 2. Comparison to GW4064 is made by the equation (RLUcpd/RLUbkgd)/(RLUGW4064/RLUbkgd) • 3. For agonist potency determinations, statistical analysis of the data is performed using a customized Excel/SAS program.

Row | EC50 | SMILES
1 | 7 nM | CC(C)OC(=O)C1=CN(C(=O)C2CCCCC2)CC(C)(C)c2cc(C#N)[nH]c21 [Example 2, iso-Propyl 2-cyano-6-(cyclohexylcarbonyl)-4,4-dimethyl-1,4,5,6-tetrahydropyrrolo[2,3-d]azepine-8-carboxylate]
2 | 42 nM | CC(C)OC(=O)C1=CN(C(=O)c2ccc(C#N)cc2)CC(C)(C)c2cc(C#N)[nH]c21 [Example 5, iso-Propyl 2-cyano-6-(4-cyanobenzoyl)-4,4-dimethyl-1,4,5,6-tetrahydropyrrolo[2,3-d]azepine-8-carboxylate]
3 | 13 nM | CC(C)OC(=O)C1=CN(C(=O)c2cccc(Cl)c2)CC(C)(C)c2cc(C#N)[nH]c21 [Example 6, iso-Propyl 6-(3-chlorobenzoyl)-2-cyano-4,4-dimethyl-1,4,5,6-tetrahydropyrrolo[2,3-d]azepine-8-carboxylate]
